Among the data in ChEMBL document CHEMBL3351619 (J Med Chem, 2014) are inhibition values, retold here.

Structures are written as SMILES.

The subject of this assay is 5-HT2C receptor (Homo sapiens). In words: Displacement of [3H]mesulergine from 5-HT2C (unknown origin) at 1 uM after 120 mins. A general note: In a radioligand displacement assay an active substance lowers the binding of a labelled ligand.

Usually inhibition stands for the percentage by which the read-out fell short of the control. A higher inhibition goes with strong suppression. The compound `O=C1Cc2ccccc2N1CC/C=C/CCN1CCc2ccccc2C1` registered an inhibition of 0%.
